Key:
hCB2 = molecular target: T1, hCB2 (Homo sapiens, UniProt P34972); experiment: Competitive in vitro binding assay with [3H]CP-55,940, membranes of CHO-K1 cells stably transfected with hCB2
T1 construct: purchased PerkinElmer; host or cells: CHO-K1 cells stably transfected

Amino acid sequences for entries named in this document (tags omitted).
UniProt P34972, whole entry: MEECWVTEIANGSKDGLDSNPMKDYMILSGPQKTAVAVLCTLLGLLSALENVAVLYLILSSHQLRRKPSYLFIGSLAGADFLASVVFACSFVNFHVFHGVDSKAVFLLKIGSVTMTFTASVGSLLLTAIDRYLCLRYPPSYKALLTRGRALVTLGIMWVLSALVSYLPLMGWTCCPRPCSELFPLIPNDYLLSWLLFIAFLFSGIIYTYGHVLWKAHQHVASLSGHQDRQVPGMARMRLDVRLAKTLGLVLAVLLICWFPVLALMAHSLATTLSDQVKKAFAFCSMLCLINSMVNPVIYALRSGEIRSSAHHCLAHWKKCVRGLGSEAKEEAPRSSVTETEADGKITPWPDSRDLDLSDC
UniProt P21554, whole entry: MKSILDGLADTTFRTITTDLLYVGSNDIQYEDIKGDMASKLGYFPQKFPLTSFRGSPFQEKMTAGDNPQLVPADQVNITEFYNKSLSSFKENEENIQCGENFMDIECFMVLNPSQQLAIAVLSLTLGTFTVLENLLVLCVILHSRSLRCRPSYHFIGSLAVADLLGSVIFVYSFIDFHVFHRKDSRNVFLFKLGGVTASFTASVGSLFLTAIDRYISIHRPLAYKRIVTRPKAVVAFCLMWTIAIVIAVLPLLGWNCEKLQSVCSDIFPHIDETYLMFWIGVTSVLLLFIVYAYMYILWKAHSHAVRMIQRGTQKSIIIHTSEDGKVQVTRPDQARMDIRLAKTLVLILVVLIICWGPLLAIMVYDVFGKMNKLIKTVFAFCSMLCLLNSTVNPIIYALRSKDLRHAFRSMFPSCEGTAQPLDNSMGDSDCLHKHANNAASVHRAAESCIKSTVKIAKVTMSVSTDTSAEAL

hCB1 = molecular target: T2, hCB1 (Homo sapiens, UniProt P21554); experiment: Competitive in vitro binding assay with [3H]CP-55,940, membranes of CHO-K1 cells stably transfected with hCB1; conditions: displacement of [3H]CP-55,940 (1.4 nM), 30°C, 90 min; three independent experiments in triplicate; Cheng-Prusoff
T2 construct: purchased PerkinElmer; host or cells: CHO-K1 cells stably transfected

**Q.** With `COC(=O)c1c(NC(=O)C23CC4CC(CC(O)(C4)C2)C3)sc2c1CCCC2` [AAT-015] as the compound, how does the “selectivity over CB1” value (hCB2; Ki CB1 versus Ki CB2) read?
**A.** 300 fold

**Q.** What about the Ki (hCB2; displacement of [3H]CP-55,940 (1.4 nM), 30°C, 90 min, three independent experiments in triplicate, Cheng-Prusoff) of the same compound?
**A.** 3.3 ± 0.5 nM

**Q.** And the Ki (hCB1)?
**A.** 1000 ± 200 nM
